Experimental data from patent US11590472B2, “Methods and compositions for on-demand release of ClO2 gas from UV-activated chlorite ion” (Wisconsin Alumni Research Foundation, priority 2015, dated 2023).
Where two headings read alike, the source gives them in different places.

Key:
[1] = for ClO2 concentration detected: UV 254 nm 15 min
[2] = format: physicochemical; details: upper detection limit 240 ppm
[3] = 254 nm 15 min, stored in N2, release at 60% RH

Which results are given for sodium chlorite [NaClO2]?
total ClO2 potentially available for release in the system ([1]; 100 mg NaClO2 sample): ~60 mg; time activated samples maintain the same activity level [1, 3]: about fifteen; time activated samples retain activity (still release ClO2) [1, 3]: ≥ 48 h; time after which a meaningful decrease in activity starts [1, 3]: twenty four; total ClO2 produced in 15 min during the release step ([1]; 254 nm, 30-75% RH): 2 to 25 µg; UV-irradiation time up to which amount of ClO2 released increased ([1]; 254 nm, release 15 min at 60% RH): up to 10 min; total ClO2 produced in 15 min during the release step ([1]; 312 nm, 45-75% RH): 1.5 to 15 µg; total ClO2 produced in 15 min during the release step ([1]; 365 nm, 45-75% RH): 0.9 to 7 µg; ClO2 concentration detected ([1]; moist N2 15% RH): no ClO2 was detected; ClO2 concentration detected ([1]; moist N2 30% RH): 0.01-0.13 ppm; ClO2 concentration detected ([1]; moist N2 45% RH): 0.08-0.3 ppm; ClO2 concentration detected ([1]; moist N2 60% RH): 0.15-0.65 ppm; ClO2 concentration detected ([1]; moist N2 75% RH, detector range 0-1 ppm): 0.28-1 ppm; release of ClO2 from non-activated samples ([1]; UV duration experiment, 0 min UV, 60% RH): no release of ClO2 could be detected; minimum RH at which detectable levels of ClO2 (>0.01 ppm) is produced ([1]; UV-activation 254 nm): 30%; minimum RH at which detectable levels of ClO2 (>0.01 ppm) is produced ([1]; UV-activation 312 nm): 45%; minimum RH at which detectable levels of ClO2 (>0.01 ppm) is produced ([1]; UV-activation 365 nm): 45%; effect of initial moisture content on ClO2 release ([1]; equilibrated 1 h at RH 0-75%, 254 nm 15 min, release in dry N2): ClO2 release from activated samples increases with increasing the initial moisture content of NaClO2; ClO2 detected in control samples ([1]; no UV light during activation step): no ClO2 was detected; tunability of quantity of ClO2 released ([1]; varying UV wavelength, relative humidity, duration of UV exposure): ~25 fold

What does the source list for sodium chlorite [Sample 6]?
ClO2 concentration after fluorescent light exposure ([2]; 20 mL sealed vial, compact fluorescent light approximately 4.5 hours): 63 ppm; ClO2 concentration after UV (254 nm) light exposure ([2]; subsequent UV 254 nm 15 seconds): >240 ppm
